The target of the assay is Bovine serum albumin (BSA) (Bos taurus, UniProt P02769). In words: biochemical. The protocol:
A minimum of 2 independent plates were run for each protein-ligand combination, with 3 replicates per sample on each plate. Controls on each plate included a no protein control, matching vehicle control (no ligand), and 3 concentrations of OA (1, 2, 3 mM) and/or PFHxA (0.3, 1, 3 mM) as positive controls. The concentration of albumin that yielded maximal signal-to-noise ratio was optimized for each species. […] For concentration-response analyses, PFAS stock solutions were serially diluted into HBS.

Protein sequences, listed by entry. Tags and fused reporters are not part of them. Residues count along the entry.
UniProt P02769, 25-607: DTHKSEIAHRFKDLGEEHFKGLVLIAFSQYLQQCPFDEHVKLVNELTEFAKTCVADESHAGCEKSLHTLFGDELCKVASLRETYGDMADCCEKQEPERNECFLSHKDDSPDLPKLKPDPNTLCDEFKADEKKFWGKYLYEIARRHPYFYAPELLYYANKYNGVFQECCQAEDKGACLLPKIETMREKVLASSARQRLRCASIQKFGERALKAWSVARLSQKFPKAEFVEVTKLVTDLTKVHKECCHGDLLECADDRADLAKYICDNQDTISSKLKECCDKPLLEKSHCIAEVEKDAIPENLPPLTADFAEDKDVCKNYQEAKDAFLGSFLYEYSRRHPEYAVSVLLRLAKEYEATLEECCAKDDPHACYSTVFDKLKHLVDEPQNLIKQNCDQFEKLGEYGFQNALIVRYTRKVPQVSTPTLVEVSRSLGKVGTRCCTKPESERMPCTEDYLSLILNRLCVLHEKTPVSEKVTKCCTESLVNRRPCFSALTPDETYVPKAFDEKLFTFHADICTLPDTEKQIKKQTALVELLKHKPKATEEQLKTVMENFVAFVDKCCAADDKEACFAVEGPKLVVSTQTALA

On to `O=S(=O)(O)C(F)(F)C(F)(F)C(F)(F)C(F)(F)C(F)(F)C(F)(F)C(F)(F)C(F)(F)F` [PFOS, perfluorooctanesulfonic acid], for which the Kd stood at 860 µM.

Source of the values: article PMC11057469, “Quantitative cross-species comparison of serum albumin binding of per- and polyfluoroalkyl substances from five structural classes” (Toxicological Sciences, 2024).
